Data on 5 compounds can be found in paper PMC4245550, “Exploring the Chemodiversity and Biological Activities of the Secondary Metabolites from the Marine Fungus Neosartorya pseudofischeri” (Marine Drugs, 2014).

In the experiment the test system is RKO (a poorly differentiated colon carcinoma cell line). The experiment can be described thus: Cytotoxicity, MTS assay. The note with it: 72 h.

`CN1C(=O)[C@]23CC4=CC=C[C@H](O)[C@H]4N2C(=O)[C@@]1(CO)SS3` [Compound 7, gliotoxin]: the concentration for half-maximal inhibition (IC50) (usually the concentration that gives 50% inhibition) (Homo sapiens, RKO) was found to be 0.8 ± 0.2 µM.
On the same count and under the same terms, the value for `CN1C(=O)C2(S)CC3=CC=CC(O)C3N2C(=O)C1(S)CO` (centres unmarked) [Compound 9, reduced gliotoxin] was 0.41 ± 0.07 µM.
Still for that read-out and setting: then `CSC1(CO)C(=O)N2C3C(=CC=CC3OC(C)=O)CC2(SC)C(=O)N1C` (centres unmarked) [Compound 10, 6-acetylbis(methylthio)gliotoxin], with above 50 µM.
On the same count and under the same terms, the value for `CSC1(CO)C(=O)N2c3ccccc3CC2(SC)C(=O)N1C` (centres unmarked) [Compound 12, didehydrobisdethiobis(methylthio)gliotoxin] was above 50 µM.
“bisdethiobis(methylthio)gliotoxin [Compound 11]” showed an IC50 (RKO cells, MTS, n = 5) of 10.32 ± 0.04 µM.
